The values below come from US7312219B2, “Heteroaromatic inhibitors of fructose 1,6-bisphosphatase” (Metabasis Therapeutics, Inc., priority 1998, dated 2007).

The assay deals with T1, human liver FBPase (Homo sapiens, UniProt P09467).
T1 construct: made in house; host or cells: E. coli BL21
T1 sequence (P09467 2-338 limits assumed): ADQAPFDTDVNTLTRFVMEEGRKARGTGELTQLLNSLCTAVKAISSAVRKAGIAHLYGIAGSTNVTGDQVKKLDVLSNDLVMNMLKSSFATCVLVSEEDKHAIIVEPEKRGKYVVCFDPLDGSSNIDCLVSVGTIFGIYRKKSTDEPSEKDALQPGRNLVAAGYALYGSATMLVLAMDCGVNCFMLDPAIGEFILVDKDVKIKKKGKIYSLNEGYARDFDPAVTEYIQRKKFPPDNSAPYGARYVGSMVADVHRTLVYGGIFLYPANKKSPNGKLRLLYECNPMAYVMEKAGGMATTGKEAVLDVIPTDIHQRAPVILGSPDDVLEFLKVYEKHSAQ
Kind of assay: Inhibition of Human Liver FBPase. The settings on record: selectivity table; read-out: FBPase (inh.). Type of assay: biochemical.

The structures appear in SMILES notation.

Regarding `CC(C)Cc1oc(N)nc1-c1ccc(P(=O)(O)O)o1` [Compound 10.1, 2-amino-5-isobutyl-4-[2-(5-phosphono)furanyl]oxazole], the IC50 came out at 100 nM.
